Results reported in ChEMBL document CHEMBL1125750, “Dual antagonists of platelet activating factor and histamine. Identification of structural requirements for dual activity of N-Acyl-4-(5,6-dihydro-11H-benzo [5,6]cyclohepta-[1,2-b]pyridin-11-ylidene)piperidines” (J Med Chem, 1991).

The chains behind the UniProt entries cited, without tags or fusion partners.
UniProt P31390, whole entry: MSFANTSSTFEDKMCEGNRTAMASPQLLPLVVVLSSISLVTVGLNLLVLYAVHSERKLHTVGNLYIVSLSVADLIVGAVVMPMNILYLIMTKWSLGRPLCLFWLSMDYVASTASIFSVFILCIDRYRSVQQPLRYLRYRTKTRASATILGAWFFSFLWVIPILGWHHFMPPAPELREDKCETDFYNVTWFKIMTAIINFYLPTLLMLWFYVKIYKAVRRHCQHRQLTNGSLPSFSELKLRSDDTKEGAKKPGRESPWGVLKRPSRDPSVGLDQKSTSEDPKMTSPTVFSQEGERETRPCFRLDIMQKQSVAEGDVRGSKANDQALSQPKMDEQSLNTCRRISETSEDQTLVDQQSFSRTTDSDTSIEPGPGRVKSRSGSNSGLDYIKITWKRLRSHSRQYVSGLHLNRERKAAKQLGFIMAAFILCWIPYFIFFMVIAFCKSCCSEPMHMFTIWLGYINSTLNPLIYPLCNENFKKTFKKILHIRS

Biological target: Histamine H1 receptor (Rattus norvegicus, UniProt P31390)
Assay: Binding affinity to histamine H1 receptor in rat brain membranes was evaluated using [3H]-pyrilamine as radioligand
Assay type: cell membranes

Ki: 5.5 nM
Compound: CN(C)CCC(c1ccc(Cl)cc1)c1ccccn1 (stereo unspecified) [CHLORPHENIRAMINE]
